# In PubChem BioAssay AID624202 (National Center for Advancing Translational Sciences (NCATS), 2012):
# Only a part is listed here, and it is no random draw. Calls of active or inactive are those of the source. The call rests on the fitted dose curve; in most records, active means well fitted activation curve with a large enough effect; inconclusive means small, poorly fitted or top-dose-only effect; inactive means no such curve, though single readings can be large or run the other way.
# Test: qHTS Assay to Identify Small Molecule Activators of BRCA1 Expression; further: nearly all actives have a fitted effect of over 80% in size
# Settings: MCF7-BRCA1-FFLuc reporter, luminescence, 48 h, scaled: vehicle 0%, 10 µM genistein 100%; at 46.1 µM (top of the series)
row,Compound,activation
1,c1nnnn1CCn1cnnn1,inactive: 16.3%
2,NC(=O)Nc1ccc([As](=O)(O)O)cc1,inactive: 3.43%
